According to article PMC4074120, “Discovery of Novel GPVI Receptor Antagonists by Structure-Based Repurposing” (PLoS ONE, 2014):

Target: T1, GPVI (platelet glycoprotein VI) (Homo sapiens, UniProt Q9HCN6)
T1 construct: gene GP6; native receptor on washed human platelets
T1 sequence (Q9HCN6 21-339): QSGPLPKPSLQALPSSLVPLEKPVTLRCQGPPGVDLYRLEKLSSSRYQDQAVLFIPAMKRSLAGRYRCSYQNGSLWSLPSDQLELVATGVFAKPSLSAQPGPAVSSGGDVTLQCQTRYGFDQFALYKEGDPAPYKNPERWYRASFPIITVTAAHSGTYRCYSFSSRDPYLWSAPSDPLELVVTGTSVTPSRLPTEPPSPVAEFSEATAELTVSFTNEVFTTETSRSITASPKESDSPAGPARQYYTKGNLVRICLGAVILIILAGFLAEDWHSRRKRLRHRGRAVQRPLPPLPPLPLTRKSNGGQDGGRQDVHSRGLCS
Assay: Inhibition of CRP-XL/collagen-induced Ca2+ release and aggregation in washed human platelets; rightward shift of CRP-XL curve
Assay type: cell-based
Details: read-out: Ca^2+ RELEASE / CRP

Question: For `CCCCc1nc(Cl)c(CO)n1Cc1ccc(-c2ccccc2-c2nn[nH]n2)cc1` [losartan], which IC50 is on record?
Answer: Its IC50 is 4 µM.
